These results are taken from patent US20160251403A1, “PEPTIDE COMBINATIONS AND USES THEREOF IN TREATING DUST MITE ALLERGY” (ALK-ABELLO A/S, priority 2013, published 2016).

Amino acid sequences for entries named in this document (tags omitted). Residues count along the entry.
UniProt P01920, 33-261: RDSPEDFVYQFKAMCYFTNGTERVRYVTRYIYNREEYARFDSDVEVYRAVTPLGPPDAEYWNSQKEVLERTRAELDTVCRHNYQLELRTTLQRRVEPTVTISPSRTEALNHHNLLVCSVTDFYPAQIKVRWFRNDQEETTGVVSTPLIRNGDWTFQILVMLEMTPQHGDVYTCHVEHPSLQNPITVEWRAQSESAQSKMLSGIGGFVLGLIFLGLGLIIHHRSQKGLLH

Where only a bound is given, the exact number is not on record here.

The target in the test is DQA10501-DQB10301 (Homo sapiens, UniProt P01909+P01920). The test is described as follows: Competitive MHC class II binding assay, DQA10501-DQB10301.

By IC50 is commonly meant the concentration that inhibits the measured activity by half.

On to `CC[C@H](C)[C@H](NC(=O)CNC(=O)[C@@H](N)CCCNC(=N)N)C(=O)N[C@@H](CCC(=O)O)C(=O)N[C@@H](Cc1ccc(O)cc1)C(=O)N[C@H](C(=O)N[C@@H](CCC(N)=O)C(=O)N[C@@H](Cc1c[nH]cn1)C(=O)N[C@@H](CC(N)=O)C(=O)NCC(=O)N[C@H](C(=O)N[C@H](C(=O)N[C@@H](CCC(N)=O)C(=O)N[C@@H](CCC(=O)O)C(=O)N[C@@H](CO)C(=O)O)C(C)C)C(C)C)[C@@H](C)CC` [pep-025], for which the 50% inhibitory concentration (IC50) is below 1000 nM.
